The list shows a part of the results, in another mix than the full data. Some salts or complexes appear as unconnected parts, following the source record. Activity calls are given as the source filed them. Calls follow the shape of the dose curve; as a rule, active = well fitted inhibition curve with a large enough effect; inconclusive = small, poorly fitted or top-dose-only effect; inactive = no such curve, though single readings can be large or run the other way.
% is scaled to controls: 0 for no effect and ±100 for the full control effect.

The chains behind the UniProt entries cited, without tags or fusion partners.
UniProt O75874, whole entry R132H: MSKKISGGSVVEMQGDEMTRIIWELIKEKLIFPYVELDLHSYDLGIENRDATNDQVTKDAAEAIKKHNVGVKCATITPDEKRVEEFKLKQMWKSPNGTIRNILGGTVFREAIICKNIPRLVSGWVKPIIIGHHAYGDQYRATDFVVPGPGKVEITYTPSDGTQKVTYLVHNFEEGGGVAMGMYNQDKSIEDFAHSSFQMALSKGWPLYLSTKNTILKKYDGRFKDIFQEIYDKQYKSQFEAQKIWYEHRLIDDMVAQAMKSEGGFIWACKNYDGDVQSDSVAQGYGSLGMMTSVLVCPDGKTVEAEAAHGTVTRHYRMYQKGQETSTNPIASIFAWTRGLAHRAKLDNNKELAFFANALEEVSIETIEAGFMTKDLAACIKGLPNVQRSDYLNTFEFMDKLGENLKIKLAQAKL

The target of the experiment is Isocitrate dehydrogenase [NADP] cytoplasmic (Homo sapiens) (UniProt O75874). As to the kind of experiment: qHTS for Inhibitors of mutant isocitrate dehydrogenase 1 (IDH1): qHTS. Also: nearly all actives have a fitted effect of over 65% in size. Conditions: IDH1-R132H enzyme, NADPH consumption, diaphorase/resazurin fluorescence; at 76.6 µM (top of the series). The procedure, abridged: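 IDH1-R132H (0.5 ug/mL) preincubated 30 min with compound, then NADPH (0.016 mM) and alpha-KG (2 mM) added; 80 min at RT, pH 7.5. Remaining NADPH coupled via diaphorase/resazurin to fluorescence (540/590 nm); concentration-response curves normalized to no-enzyme control.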
Regarding `CC(C)(C)OC(=O)N1CCC(N(C(=O)c2ccccc2)c2ccc(F)cc2)CC1`, the activity change, negative = inhibition was inactive: -5.64%. `CSc1ccccc1C(=O)NCC1(N2CCCCC2)CCCCC1`: the activity change, negative = inhibition is inactive: -8.95%. Consider `Cc1cccc(NC2(C#N)CCN(Cc3ccccc3)CC2)c1`, for which the activity change, negative = inhibition is inactive: 3.32%. As for `O=C(NCC1(N2CCCCC2)CCCCC1)c1cncc(Br)c1`, the activity change, negative = inhibition is inactive: 0.216%.

`COc1ccc2c(c1O)-c1c(O)c(OC)cc3c1[C@H](C2)[N+](C)(C)CC3.O=[N+]([O-])c1cc([N+](=O)[O-])c([O-])c([N+](=O)[O-])c1[O-]`: the activity change, negative = inhibition is inactive: 15.2%. For the compound `CN1CCC(Nc2cccc(F)c2)CC1`, the activity change, negative = inhibition is inactive: 4.2%.

In the case of `O=C(OC1CN2CCC1CC2)c1ccc([N+](=O)[O-])cc1` (configuration not stated), the activity change, negative = inhibition was inactive: -1.71%. Take `Cc1ccc(C(=O)NCC2(N(C)C)CCCCC2)o1`: the activity change, negative = inhibition is inactive: 8.02%. For `CCCCOc1ccccc1C(=O)NCC1(N2CCOCC2)CCCCC1`, the activity change, negative = inhibition is inactive: -0.775%. In the case of `CCCOc1ccc(C(=O)NCC2(N(C)C)CCCCC2)cc1OC`, the activity change, negative = inhibition was inactive: 3.82%. As for `O=C(NCC1(N2CCOCC2)CCCCC1)c1ccccc1Br`, the activity change, negative = inhibition is inactive: 21.3%.

Regarding `O=[N+]([O-])c1cc([N+](=O)[O-])c(Nc2ccc(Cl)cc2)c([N+](=O)[O-])c1`, the activity change, negative = inhibition was inactive: 9.77%.

`COc1ccc(CN(CCCl)CCCl)cc1Cl`: the activity change, negative = inhibition was inactive: -7.43%. As to `O=[N+]([O-])c1cc([N+](=O)[O-])c(OC2CCCCC2O)c([N+](=O)[O-])c1` (configuration not stated), the activity change, negative = inhibition was inactive: -0.665%. The result for `CN(C)c1cccc(C(=O)NCC2(N3CCCCC3)CCCCC2)c1` reads inactive: 6.58%. `CC(C)c1ccc(NC2CCN(C(=O)OC(C)(C)C)CC2)cc1`: the activity change, negative = inhibition is inactive: 8.76%. The result for `COc1cc(OC)c(C(=O)NCC2(N(C)C)CCCCC2)cc1OC` reads inactive: -10.7%; that for `O=C(NCC1(N2CCOCC2)CCCCC1)c1cc(F)c(F)cc1Cl`, inactive: -1.79%. In the case of `CCCOc1cccc(C(=O)NCC2(N3CCOCC3)CCCCC2)c1`, the activity change, negative = inhibition was inactive: 9.74%.

On to `O=C(NCC1(N2CCCCC2)CCCCC1)c1cccc(C(F)(F)F)c1`, for which the activity change, negative = inhibition was inactive: 0%. On to `O=[N+]([O-])c1cc([N+](=O)[O-])c(NCC2CCS(=O)(=O)C2)c([N+](=O)[O-])c1` (configuration not stated), for which the activity change, negative = inhibition is inactive: 11.7%.

Take `CN1CCN(CCOC(=O)C(O)(c2ccccc2)c2ccccc2)CC1`: the activity change, negative = inhibition is inactive: -1.86%. As for `COc1ccc(NC2CCN(C(=O)OC(C)(C)C)CC2)cc1`, the activity change, negative = inhibition was inactive: -0.268%. `CC(C)c1ccc(C(=O)NCC2(N3CCOCC3)CCCCC2)cc1`: the activity change, negative = inhibition is inactive: 9.87%.

Take `COc1cc(C(=O)NCC2(N3CCCCC3)CCCCC2)ccc1OC(F)F`: the activity change, negative = inhibition was inactive: 2.55%.

For the compound `O=C(NCC1(N2CCOCC2)CCCCC1)c1cc(=O)[nH]c2ccccc12`, the activity change, negative = inhibition was inactive: 0.83%.

On to `O=C(NCC1(N2CCCCC2)CCCCC1)c1ccc(OC(F)F)cc1`, for which the activity change, negative = inhibition was inactive: -2.23%.

With `CCOc1ccc(C(=O)NCC2(N3CCOCC3)CCCCC2)cc1`, the activity change, negative = inhibition was inactive: -0.544%.

With `O=C(NCC1(N2CCCCC2)CCCCC1)c1cccc([N+](=O)[O-])c1`, the activity change, negative = inhibition is inactive: 6.03%. `CSc1ccc(C(=O)NCC2(N3CCOCC3)CCCCC2)cc1`: the activity change, negative = inhibition was inactive: 7.35%. As to `CCN1CCC(Nc2ccc(Cl)cc2)CC1`, the activity change, negative = inhibition was inactive: -4.84%.

Regarding `N#CC1(Nc2ccccc2)CCN(CCc2ccccc2)CC1`, the activity change, negative = inhibition was inactive: 0.263%.

These data come from PubChem BioAssay AID602179 (National Center for Advancing Translational Sciences (NCATS), 2012).
